Results as given in patent US9995734B2, “Human T cell line assay for evaluating the immunologic identity of glatiramer acetate preparations” (Mylan Inc., priority 2013, dated 2018).

Tested on: Donor 2 T-Cell Line 206-1A7
Details: Day 88, B-LCL, four days

## glatiramer acetate [GMA]
  TNF-α secretion by ELISA: not detectable
